Here are results for six compounds from US9023767B2, “γ-Secretase substrates and methods of use” (Memorial Sloan-Kettering Cancer Center, priority 2009, dated 2015).

For assay [1], the target named is T1, γ-secretase (Homo sapiens (Human), UniProt P49768+Q92542). The assay can be described thus: In vitro γ-secretase assay, HeLa membrane, APP-derived substrates, ECL detection. The assay is classed as biochemical. The settings on record: for pIC50: Aβ40 production, HeLa membrane, 0.25% CHAPSO, read-out: IC50, γ-secretase activity on APP substrate; for effect on γ-secretase processing of the S3 substrate (in trans): peptide 0.1, 1 and 10 μM, S3 0.5, 1 and 2 μM. Here is the method: The recombinant proteins were incubated with γ-secretase (40 μg/ml) in the presence or absence of 1 μM γ-secretase inhibitor L-685,458 (CAS [292632-98-5], shown below). The reaction mixture contains 0.25% 3[(3-cholamidopropyl) dimethylammonio]-2-hydroxypropanesulfonic acid (CHAPSO), 0.1 μg/μl BSA, protease inhibitor, 50 mM PIPES, pH 7.0, 5 mM MgCl2, 5 mM CaCl2 and 150 mM KCl. The reaction was incubated for 2.5 hr at 37° C. and stopped by adding RIPA buffer (150 mM NaCl, 1.0% NP-40, 0.5% sodium
[drawing 1] deoxycholate, 0.1% SDS, 50 mM Tris HCl, pH 8.0). The products were detected with various antibody combinations as previously described (Lai et al., 2003; J. Biol. Chem., 278: 22475-22481; Li et al., 2000, Proc. Natl. Acad. Sci. USA, 97: 6138-6143; Yin et al., 2007, J. Biol. Chem., 282:23639-23644) using electrochemiluminescence (ECL). The amount of product was determined using synthetic peptide or recombinant standards. The Km and Vmax were determined from the Michaelis-Menten equation Michaelis-Menten Kinetics (ν=Vm[S]/([…]; ν: initial rate; Vm: maximum velocity; Km: the Michaelis-Menten constant, S: substrate). P-values were calculated from Student t-test. 7.1.5 Cell-Based Aβ Production Assay and Western Blot

In assay [2] the target is T1, γ-secretase. The experiment in a line: In vitro γ-secretase cleavage of Notch1 peptide substrate, HeLa membrane, Val1744 antibody. Type of assay: biochemical. Particulars: read-out: IC50, Notch substrate processing. Here is the method:
FIG. 4. […] Various concentrations of inhibitor were incubated with APP substrate (S4) or Notch peptide substrate containing the C-terminal biotinylated transmembrane domain of Notch1 and HeLa cell membrane in the presence of 0.25% CHAPSO. Aβ40 was detected by G2-10 antibody. […] Activities are expressed as percentage relative to reading that was produced in DMSO control. […] Various concentrations of S4 substrate were incubated with HeLa membrane in fixed concentrations of inhibitor as indicated. The double reciprocal velocity (1/v) and substrate concentrations (1/S) are plotted to determine the type of inhibition. […] Assays were conducted as described in FIG. 4A. […] The labeled samples were solubilized with RIPA buffer. Biotinylated proteins were captured with streptavidin-agarose and probed by immunoblotting using antibodies against biotin, PS1-CTF, PS1-NTF, Nicastrin, PEN-2 and APH-1a. HeLa cell membrane proteins were directly loaded onto lanes indicated by an arrow in the PEN-2 and APH-1a blots as positive controls. […] Upper panel: PS1-NTF; Lower panel: PS1-CTF. […] Rev.

Usually pIC50 stands for −log10 of the IC50, conventionally taken in molar units.

pIC50: −log10 of the molar value.

For the compound `CC(C)C[C@H](N)C(=O)N[C@H](C(=O)N[C@@H](Cc1ccccc1)C(=O)N[C@@H](Cc1ccccc1)C(=O)O)C(C)C` [Aβ17-20, LVFF], the negative-log IC50 (pIC50) in assay [1] is 6.03.
As to `CC(C)C[C@H](N)C(=O)N[C@H](C(=O)N[C@@H](Cc1ccccc1)C(=O)N[C@@H](Cc1ccccc1)C(=O)N[C@@H](C)C(=O)O)C(C)C` [Aβ17-21, LVFFA], the pIC50 in assay [1] was 6.55.
With `CC(C)C[C@H](N)C(=O)N[C@H](C(=O)N[C@@H](Cc1ccccc1)C(=O)N[C@@H](Cc1ccccc1)C(=O)N[C@@H](C)C(=O)N[C@@H](CCC(=O)O)C(=O)N[C@@H](CC(=O)O)C(=O)O)C(C)C` [Aβ17-23, LVFFAED], the pIC50 in assay [1] was 5.82; in assay [2], 5.00.
As for `CC(C)C[C@H](N)C(=O)N[C@H](C(=O)N[C@@H](Cc1ccc(C(=O)c2ccccc2)cc1)C(=O)N[C@@H](Cc1ccccc1)C(=O)N[C@@H](C)C(=O)N[C@@H](CCC(=O)O)C(=O)N[C@@H](CC(=O)O)C(=O)O)C(C)C` [Aβ17-23BPA^19], the pIC50 in assay [1] is 7.09.
Consider “Aβ1-12: Aβ1-16 derived synthetic peptide (DAEFRHDSGYEV; Amyloid-beta protein 42; UniProt P05067 672-683, looked up, fragment)”, for which, in assay [1], the “inhibition of γ-secretase activity, APP processing” value is “no inhibition” and the “effect on γ-secretase processing of the S3 substrate (in trans)” value was “no difference”.
Taken in the same sequence, the figures for “Aβ1-16: Aβ1-16 derived synthetic peptide (DAEFRHDSGYEVHHQK; Amyloid-beta protein 42; UniProt P05067 672-687, looked up, fragment)” were “no inhibition” and “no difference”.
